Target: T1, purified PP1α released from the GST-PP1α fusion protein by thrombin (human)
T1 construct: Apparent Mr 38,000 on the gel; also called protein phosphatase 1α; phosphatase 1α
Experiment: GST pulldown of purified PP1α, immunoblot with anti-PP1α antibody

B1: GST alone (on beads) (other, UniProt P08515 1-218, looked up)
chain: MSPILGYWKIKGLVQPTRLLLEYLEEKYEEHLYERDEGDKWRNKKFELGLEFPNLPYYIDGDVKLTQSMAIIRYIADKHNMLGGCPKERAEISMLEGAVLDIRYGVSRIAYSKDFETLKVDFLSKLPEMLKMFEDRLCHKTYLNGDHVTHPDFMLYDALDVVLYMDPMCLDAFPKLVCFKKRIEAIPQIDKYLKSSKYIAWPLQGWQATFGGGDHPPK
notes: Negative control of both pulldown experiments; also called GST-beads
binding result: no binding
